Test results from paper PMC10418364.

Target: acetylated α-tubulin (human (endogenous in post-mortem human brain)) (UniProt Q71U36)
Assay: proximity ligation; in situ Duolink PLA on paraffin sections of the substantia nigra of post-mortem human brain; anti-acetylated α-tubulin mouse antibody and anti-α-synuclein rabbit antibody, repeated with anti-acetylated α-tubulin rabbit antibody and anti-α-synuclein mouse antibody (LB509)

- PLA signal normalized on acetylated α-tubulin: 0.081
Substance: α-synuclein (from UniProt P37840 1-140) (natural protein)
